The source of these data is PubChem BioAssay AID602277 (University of Pittsburgh Molecular Library Screening Center, 2012).

The entries are a selection whose mix differs from that of the whole data set. Calls of active or inactive are those of the source.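 How the source made its calls: active means inhibition of the reporter signal at or above 50%; inactive means inhibition below 50%.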

The term inhibition denotes the relative decrease from the control value, in per cent.

The assay can be described thus: TLR3 IRF3 reporter activation blockers – cell-based, poly I:C stimulus, luciferase, 10K MLSCN set, primary screen (AID 602277). To be noted: HEK293-TLR3 RL24 IRF3 luciferase reporter, at 10 µM, hits give high values. For orientation: Reporter assays use an easily measured gene product as a stand-in for the process of interest.
As for `Fc1ccccc1NC1CCN(Cc2ccccc2)CC1`, the inhibition is inactive: 26.4%.
